# Only a part is listed here, and it is no random draw. Active and inactive are the calls of the source. No stated cut-off is given here; in the data, active means inhibition above about 45%; inactive means the rest.
# Chains of the proteins cited; added tags and fusions are not shown.
# UniProt O00206, whole entry: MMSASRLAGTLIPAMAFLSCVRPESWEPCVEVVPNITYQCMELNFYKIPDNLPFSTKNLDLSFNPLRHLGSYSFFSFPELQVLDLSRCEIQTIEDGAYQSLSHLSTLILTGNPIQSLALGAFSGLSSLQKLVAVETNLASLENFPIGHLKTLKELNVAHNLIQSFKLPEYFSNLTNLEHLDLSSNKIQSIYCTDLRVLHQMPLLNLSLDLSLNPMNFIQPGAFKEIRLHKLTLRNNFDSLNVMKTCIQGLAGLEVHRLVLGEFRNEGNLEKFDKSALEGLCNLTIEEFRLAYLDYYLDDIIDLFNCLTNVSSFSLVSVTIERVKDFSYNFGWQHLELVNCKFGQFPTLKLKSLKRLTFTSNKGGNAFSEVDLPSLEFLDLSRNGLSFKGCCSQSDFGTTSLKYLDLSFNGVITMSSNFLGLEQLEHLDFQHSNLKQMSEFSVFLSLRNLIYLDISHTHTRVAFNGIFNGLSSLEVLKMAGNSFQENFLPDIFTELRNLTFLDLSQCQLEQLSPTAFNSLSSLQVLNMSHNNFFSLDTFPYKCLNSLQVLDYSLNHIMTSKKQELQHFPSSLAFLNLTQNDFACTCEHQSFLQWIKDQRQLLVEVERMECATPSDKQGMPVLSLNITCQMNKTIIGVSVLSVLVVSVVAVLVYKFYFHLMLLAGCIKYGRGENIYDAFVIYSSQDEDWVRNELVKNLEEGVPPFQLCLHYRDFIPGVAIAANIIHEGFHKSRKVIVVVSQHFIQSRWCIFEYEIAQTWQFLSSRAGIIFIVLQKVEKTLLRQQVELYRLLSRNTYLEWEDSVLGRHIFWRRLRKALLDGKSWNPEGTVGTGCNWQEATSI
# Biological target: Toll-like receptor 4 (Homo sapiens) (UniProt O00206)
# Assay: blocks binding of human TLR4 to MyD88 (AID 811)
# Conditions: Cell-based TLR4-MyD88 binding inhibition assay; at 10 µM; hits give high values
row,Compound,inhibition
1,Cc1ccccc1NC1CC(C)(C)NC(C)(C)C1,inactive: 2.33%

# Reference: PubChem BioAssay AID811 (The Scripps Research Institute Molecular Screening Center, 2007)
